{"source": "ChEMBL document CHEMBL2321693", "about": "“Optimizing solubility and permeability of a biopharmaceutics classification system (BCS) class 4 antibiotic drug using lipophilic fragments disturbing the crystal lattice” (J Med Chem, 2013)", "system": "Caco-2", "assay": "Efflux ratio of permeability from basolateral to apical side to apical to basolateral side in human Caco2 cells", "format": "ADME, cell-based", "method_in_brief": "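Caco-2 inserts with a 6.5/7.4 pH gradient at 37 °C and 10 μM donor drug. Papp measured in both directions, and the ratio taken as Papp(b−a)/Papp(a−b). Also measured with 1 μM GF120918 (P-gp inhibitor) present. Triplicates.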", "data": [{"smiles": "O=C(O)c1cn(C2CC2)c2cc(N3CCNCC3)c(F)cc2c1=O", "note": "[CIPROFLOXACIN]", "values": [{"measurement": "Ratio", "result": 5}]}]}
